{"source": "patent US5629322A", "about": "“Cyclic amidine analogs as inhibitors of nitric oxide synthase” (priority 1995, dated 1997)", "key": {"[1]": {"target": "iNOS (Homo sapiens, UniProt P35228)", "assay": "NOS activity assay, iNOS (L-[3H]citrulline formation)", "format": "biochemical"}, "[2]": {"target": "ecNOS (Homo sapiens, UniProt P29474)", "assay": "NOS activity assay, ecNOS (L-[3H]citrulline formation)", "format": "biochemical"}, "[3]": {"target": "ncNOS (Homo sapiens, UniProt P29475)", "assay": "biochemical"}}, "note": "Where a name gives a salt, the structure may show the parent alone."}
{"smiles": "NC1=NCC2CCCC12", "note": "(centres unmarked) [Table 4: (CH2)3, H, H, H, 2-Imino-3-azabicyclo(3.3.0)octane hydrochloride]", "values": [{"measurement": "IC50", "setting": "[1]", "result": "≤ 10", "unit": "µM"}, {"measurement": "IC50", "setting": "[2]", "result": "≤ 10", "unit": "µM"}]}
{"smiles": "NC1=NCC2CCCCC12", "note": "(centres unmarked) [Table 4: (CH2)4, H, H, H, 2-Imino-3-azabicyclo(4.3.0)nonane hydrochloride]", "values": [{"measurement": "IC50", "setting": "[1]", "result": "≤ 10", "unit": "µM"}, {"measurement": "IC50", "setting": "[2]", "result": "≤ 50", "unit": "µM"}]}
{"smiles": "C[C@@H]1CCC(=N)NC1", "note": "[Table 5: CH2, H, H, (R)CH3, H, H, H, 5(R)-Methyl-2-iminopiperidine hydrochloride]", "values": [{"measurement": "IC50", "setting": "[3]", "result": "≤ 10", "unit": "µM"}]}
{"smiles": "C[C@H]1CCC(=N)NC1", "note": "[Table 5: CH2, H, H, (S)CH3, H, H, H, 5(S)-Methyl-2-iminopiperidine hydrochloride]", "values": [{"measurement": "IC50", "setting": "[3]", "result": "≤ 10", "unit": "µM"}]}
{"smiles": "CC1CCC(N)=NC1", "note": "(centres unmarked) [Table 5: CH2, H, H, CH3, H, H, H, 2-Imino-5-methylpiperidine hydrochloride]", "values": [{"measurement": "IC50", "setting": "[3]", "result": "≤ 10", "unit": "µM"}]}
{"smiles": "CC1CC(N)=Nc2ccccc21", "note": "(centres unmarked) [Table 5: CH, H, CH3, (CH)4, H, H]", "values": [{"measurement": "IC50", "setting": "[2]", "result": "≤ 50", "unit": "µM"}]}
